# Apparent affinities of Ab-14 variants for a coronavirus HR2 peptide

Data: MIT Lincoln Laboratory AlphaSeq set, Engelhart et al. 2022, doi:10.1038/s41597-022-01779-4, as distributed in FLAb.

Antigen: PDVDLGDISGINAS, a 14-residue peptide of the SARS-CoV-2 spike HR2 region.

Ab-14 is the parent antibody, in scFv form: VH, then a (GGGGS)3 linker, then VL. The light chain is unchanged in all variants.
VH: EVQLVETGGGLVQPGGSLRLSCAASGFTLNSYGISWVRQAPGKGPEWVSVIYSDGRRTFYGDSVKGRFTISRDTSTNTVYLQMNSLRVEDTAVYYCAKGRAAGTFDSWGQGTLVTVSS
VL: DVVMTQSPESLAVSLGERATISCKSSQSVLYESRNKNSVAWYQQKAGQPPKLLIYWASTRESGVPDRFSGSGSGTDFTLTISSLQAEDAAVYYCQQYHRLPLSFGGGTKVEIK

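Phage display of a naive human antibody library on the peptide gave the parent. In library AAYL49, one, two or three CDR residues were substituted; doubles and triples were drawn at random. AlphaSeq pools MATa yeast showing the antibodies with MATalpha yeast showing the peptide. Mating (16 h, 30 °C) was followed by selection of diploids and sequencing of their barcodes. Scores were corrected for input abundance and mapped to Kd with protein pairs of known affinity run in the same pool. Each pool was mated in three replicate cultures.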

Positions count from residue 1 of the parent VH; T58K puts K in place of T.
This list gathers variants with a substitution at T58 (VH, numbered from residue 1).
Numbers give log10(Kd / nM), so 0 is 1 nM and 3 is 1 µM. Smaller is tighter.
A mean of the replicates is given; it leaves out those without a signal.
An entry "nd" has no value in the source: the pair was not observed among the diploids in that replicate. This suggests poor binding but is not conclusive.
Entries are sorted by rising average, undetected variants last.
Nonspecific signal, from three strains lacking the peptide, appeared in 15% of pairings of library AAYL49, centred on 4.06 (5% of these signals below 2.83); values are not corrected for it.

Variant T58K/R100Q/A101L showed 0.06, 0.39, 0.14 (mean 0.20). With N30G/T58M the result was 1.23, 1.80, 2.01 (mean 1.68). Variant F27I/G33D/T58L gave 2.10, 2.05, 2.15 (mean 2.10). Variant T58V/D62R/S107D showed 2.64, 1.71, nd (mean 2.17). With T58D the result was 1.74, 2.22, 2.98 (mean 2.31). For T58C/D62L/A101P, the assay gave 2.41, nd, nd. Variant T58G/F59A/T104I gave 2.24, 2.68, nd (mean 2.46). Variant S53Y/T58A gave 2.50, 2.19, 2.87 (mean 2.52). For N30T/G55H/T58D, the assay gave nd, nd, 3.10.

For S35N/T58L/F105I, the assay gave nd, 3.22, nd. For S35F/T58N/A101Y, the assay gave 3.61, 2.63, 3.44 (mean 3.23). For S35W/S53G/T58F, the assay gave 3.29, nd, nd. With L29I/I51H/T58L the result was nd, nd, 3.59. Variant Y52P/T58F gave nd, 3.76, nd. For S53L/T58S/T104E, the assay gave 3.47, 4.19, nd (mean 3.83). With S53F/R56W/T58S the result was 3.86, nd, nd. For F27L/Y32W/T58K, the assay gave nd, 3.91, nd. Variant T28W/T58R/G103P showed 3.96, 3.51, 4.66 (mean 4.04).

Variant T58W/D62P/V64W gave 4.03, nd, 4.06 (mean 4.05). Variant G26D/D54R/T58S gave nd, nd, 4.33. With G33W/T58I the result was nd, 4.38, nd. For Y32A/T58P/F105K, the assay gave nd, nd, 4.44. With T58S/V64T/A101F the result was nd, 4.73, nd. With R56K/T58G/R100W the result was 5.08, nd, nd. For G55D/T58L/S63T, the assay gave 5.30, nd, nd. For S31Y/T58G/G103A, the assay gave nd, nd, nd. Variant G33H/T58E/R100G showed nd, nd, nd.

Variant L29P/T58K/D106K showed nd, nd, nd. For S53N/T58P/A101T, the assay gave nd, nd, nd. With T58F/D62L/V64D the result was nd, nd, nd. With Y32F/S35T/T58C the result was nd, nd, nd. With G55P/T58I/G61W the result was nd, nd, nd. Variant T28Q/R56V/T58K gave nd, nd, nd. Variant R57M/T58W showed nd, nd, nd. Variant S35F/D54Y/T58E gave nd, nd, nd. With I34A/T58W/R100M the result was nd, nd, nd.

For I51P/T58P/D62N, the assay gave nd, nd, nd. With G26N/I34L/T58N the result was nd, nd, nd. Variant V50K/T58H/K65R gave nd, nd, nd. Variant S35I/T58F showed nd, nd, nd. For G33K/S35P/T58G, the assay gave nd, nd, nd. Variant Y32E/T58G gave nd, nd, nd. With T58P/Y60D/G103I the result was nd, nd, nd. Variant I34R/T58W/S107Q showed nd, nd, nd. Variant T28V/T58W/T104V showed nd, nd, nd.

Variant S31C/D54T/T58S gave nd, nd, nd. Variant T58R/V64P showed nd, nd, nd. Variant G33D/T58Y/T104K gave nd, nd, nd. Variant S31F/D54S/T58G gave nd, nd, nd.

In this assay the parent's reference entry averaged 0.65; its copy inside this library read 4.11 (one replicate of three).